Patent US9394282B2, “Pyrazole carboxamides as Janus kinase inhibitors” (Merck Sharp & Dohme Corp., priority 2011, dated 2016)

Chains of the proteins cited; added tags and fusions are not shown. Residues count along the entry.
UniProt O60674, 849-1124: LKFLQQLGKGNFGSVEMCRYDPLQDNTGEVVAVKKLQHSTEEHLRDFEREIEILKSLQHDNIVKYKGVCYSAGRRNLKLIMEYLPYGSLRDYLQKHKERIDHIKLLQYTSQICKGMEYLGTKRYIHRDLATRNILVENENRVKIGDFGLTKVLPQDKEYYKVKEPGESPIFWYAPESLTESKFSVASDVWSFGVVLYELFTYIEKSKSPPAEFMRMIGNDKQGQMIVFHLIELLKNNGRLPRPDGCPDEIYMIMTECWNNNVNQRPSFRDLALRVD

The molecules below were run against JAK2 (Homo sapiens (Human), UniProt O60674) (assay: Jak biochemical HTRF assay, JAK2). Settings: recombinant purified GST-tagged catalytic domain; HTRF format; [ATP] 8.5 μM.
Text: Jak Biochemical HTRF Assay Protocol
Subsequent reagent additions employed an Agilent Bravo.
`N#C[C@@H]1CN(C(=O)OCC(F)(F)F)CC[C@@H]1n1cc(C(N)=O)c(Nc2ccc(F)cc2)n1` (racemic) [Example 5-66, 2,2,2-trifluoroethyl (3R,4S and 3S,4R)-4-{4-carbamoyl-3-[(4-fluorophenyl)amino]-1H-pyrazol-1-yl}-3-cyanopiperidine-1-carboxylate] gave an IC50 of 0.994 µM. `N#C[C@@H]1CCOC[C@H]1n1cc(C(N)=O)c(Nc2cnc3cc(Cl)ccc3c2)n1` (single isomer, unassigned) [Example 9-21, 3-[(7-chloroquinolin-3-yl)amino]-1-[(3S,4R or 3R,4S)-4-cyanotetrahydro-2H-pyran-3-yl]-1H-pyrazole-4-carboxamide] was tested, and the IC50 was 0.118 µM. `N#C[C@@H]1CS(=O)(=O)CCC1n1cc(C(N)=O)c(Nc2ccc(F)cc2)n1` (mixture of isomers) [Example 8-2, 1-((3R,4S and 3S, 4R)-3-cyano-1,1-dioxidotetrahydro-2H-thiopyran-4-yl)-3-((4-fluorophenyl)amino)-1H-pyrazole-4-carboxamide] was tested, and the IC50 was 0.079 µM. With `Cc1ncc(CN2CC[C@@H](C#N)[C@H](n3cc(C(N)=O)c(Nc4ccc(F)cc4)n3)C2)s1` (racemic) [Example 6-18, 1-{(3S,4R and 3R,4S)-4-cyano-1-[(2-methyl-1,3-thiazol-5-yl)methyl]piperidin-3-yl}-3-[(4-fluorophenyl)amino]-1H-pyrdzole-4-carboxamide] the IC50 was 0.019 µM. Work on `N#C[C@@H]1CCOC[C@H]1n1cc(C(N)=O)c(Nc2ccc(Cl)c(Cl)c2)n1` (single isomer, unassigned) [Example 9-11, 1-[(3S,4R or 3R,4S)-4-cyanotetrahydro-2H-pyran-3-yl]-3-[(3,4-dichlorophenyl)amino]-1H-pyrazole-4-carboxamide] yielded an IC50 of 0.005 µM. `N#C[C@@H]1CN(C(=O)OCCN2CCOCC2)CC[C@H]1n1cc(C(N)=O)c(Nc2ccc(F)cc2)n1` (racemic) [Example 5-4, 2-morpholin-4-ylethyl (3R,4R and 3S,4S)-4-{4-carbamoyl-3-[(4-fluorophenyl)amino]-1H-pyrazol-1-yl}-3-cyanopiperidine-1-carboxylate] showed an IC50 of 0.835 µM. `N#C[C@@H]1CN(C(=O)OCC(F)F)CC[C@H]1n1cc(C(N)=O)c(Nc2ccc(F)cc2)n1` (racemic) [Example 5-16, 2,2-difluoroethyl (3R,4R and 3S,4S)-4-{4-carbamoyl-3-[(4-fluorophenyl)amino]-1H-pyrazol-1-yl}-3-cyanopiperidine-1-carboxylate] showed an IC50 of 0.132 µM. `N#C[C@@H]1CCOC[C@H]1n1cc(C(N)=O)c(Nc2ccc(C(F)(F)F)nc2)n1` (single isomer, unassigned) [Example 9-15, 1-[(3S,4R or 3R,4S)-4-cyanotetrahydro-2H-pyran-3-yl]-3-{[6-(trifluoromethyl)pyridin-3-yl]amino}-1H-pyrazole-4-carboxamide] showed an IC50 of 0.157 µM. `CCOC(=O)COC(=O)N1CC[C@H](n2cc(C(N)=O)c(Nc3ccc(F)cc3)n2)[C@H](C#N)C1` (racemic) [Example 5-59, 2-ethoxy-2-oxoethyl (3R,4S and 3S,4R)-4-{4-carbamoyl-3-[(4-fluorophenyl)amino]-1H-pyrazol-1-yl}-3-cyanopiperidine-1-carboxylate] showed an IC50 of 1.39 µM. `N#C[C@H]1CCOC[C@@H]1n1cc(C(N)=O)c(Nc2ccc(Cl)cc2)n1` (single isomer, unassigned) [Example 9-4, 3-[(4-chlorophenyl)amino]-1-[(3R,4S or 3S,4R)-4-cyanotetrahydro-2H-pyran-3-yl]-1H-pyrazole-4-carboxamide] gave an IC50 of 0.003 µM. In the case of `N#C[C@@H]1CN(CCC2CCOCC2)CC[C@H]1n1cc(C(N)=O)c(Nc2ccc(F)cc2)n1` (racemic) [Example 6-31, 1-{(3R,4R and 3S,4S)-3-cyano-1-[2-(tetrahydro-2H-pyran-4-yl)ethyl]piperidin-4-yl}-3-[(4-fluorophenyl)amino]-1H-pyrazole-4-carboxamide], the IC50 is reported as 0.258 µM. `N#C[C@@H]1CS(=O)(=O)CC[C@H]1n1cc(C(N)=O)c(Nc2ccc(F)cc2)n1` (single isomer, unassigned) [Example 13-2, 1-((3R,4R or 3S,4S)-3-cyano-1,1-dioxidotetrahydro-2H-thiopyran-4-yl)-3-((4-fluorophenyl)amino)-1H-pyrazole-4-carboxamide] gave an IC50 of 0.06 µM. In the case of `N#C[C@@H]1CCOC[C@H]1n1cc(C(N)=O)c(Nc2ccc(Cl)cc2)n1` (single isomer, unassigned) [Example 9-5, 3-[(4-chlorophenyl)amino]-1-[(3S,4R or 3R,4S)-4-cyanotetrahydro-2H-pyran-3-yl]-1H-pyrazole-4-carboxamide], the IC50 is reported as 0.061 µM. For `N#C[C@@H]1CCOC[C@H]1n1cc(C(N)=O)c(Nc2ccc(Cl)c(F)c2)n1` (single isomer, unassigned) [Example 9-13, 3-[(4-chloro-3-fluorophenyl)amino]-1-[(3S,4R or 3R,4S)-4-cyanotetrahydro-2H-pyran-3-yl]-1H-pyrazole-4-carboxamide], the IC50 was 0.004 µM. With `COC1CC(CN2CC[C@@H](C#N)[C@H](n3cc(C(N)=O)c(Nc4ccc(F)cc4)n3)C2)C1` (mixture of isomers) [Example 6-9, 1-{(3S,4R and 3R,4S)-4-cyano-1-[(3-methoxycyclobutyl)methyl]piperidin-3-yl}-3-[(4-fluorophenyl)amino]-1H-pyrazole-4-carboxamide] the IC50 was 0.191 µM. Molecule `CCOC(=O)N1CC[C@H](n2cc(C(N)=O)c(Nc3ccc(F)cc3)n2)[C@H](C#N)C1` (racemic) [Example 5-44, ethyl (3R,4S and 3S,4R)-4-{4-carbamoyl-3-[(4-fluorophenyl)amino]-1H-pyrazol-1-yl}-3-cyanopiperidine-1-carboxylate] has an IC50 of 1.2 µM. `Cn1ccc(CN2CC[C@@H](n3cc(C(N)=O)c(Nc4ccc(F)cc4)n3)[C@H](C#N)C2)n1` (racemic) [Example 6-26, 1-{(3R,4R and 3S,4S)-3-cyano-1-[(1-methyl-1H-pyrazol-3-yl)methyl]piperidin-4-yl}-3-[(4-fluorophenyl)amino]-1H-pyrazole-4-carboxamide] gave an IC50 of 0.148 µM. In the case of `N#C[C@H]1CCOC[C@@H]1n1cc(C(N)=O)c(Nc2cnc3cc(Cl)ccc3c2)n1` (single isomer, unassigned) [Example 9-22, 3-[(7-chloroquinolin-3-yl)amino]-1-[(3R,4S or 3S,4R)-4-cyanotetrahydro-2H-pyran-3-yl]-1H-pyrazole-4-carboxamide], the IC50 is reported as 0.005 µM. `N#C[C@@H]1CCOC[C@H]1n1cc(C(N)=O)c(Nc2ccccc2)n1` (single isomer, unassigned) [Example 9-38, 1-[(3R,4S or 3S,4R)-4-cyanotetrahydro-2H-pyran-3-yl]-3-(phenylamino)-1H-pyrazole-4-carboxamide] gave an IC50 of 0.003 µM. For `N#C[C@@H]1CS(=O)(=O)CCC1n1cc(C(N)=O)c(Nc2ccc(F)cc2)n1` (mixture of isomers) [Example 8-1, 1-((3R,4S and 3S,4R)-3-Cyano-1,1-dioxidotetrahydro-2H-thiopyran-4-yl)-3-((4-fluorophenyl)amino)-1H-pyrazole-4-carboxamide], the IC50 was 0.112 µM. Work on `N#C[C@H]1CCOC[C@@H]1n1cc(C(N)=O)c(Nc2ccc(Cl)c(F)c2)n1` (single isomer, unassigned) [Example 9-12, 3-[(4-chloro-3-fluorophenyl)amino]-1-[(3R,4S or 3S,4R)-4-cyanotetrahydro-2H-pyran-3-yl]-1H-pyrazole-4-carboxamide] yielded an IC50 of 0.121 µM. `CCOC(=O)COC(=O)N1CC[C@@H](n2cc(C(N)=O)c(Nc3ccc(F)cc3)n2)[C@H](C#N)C1` (racemic) [Example 5-38, 2-ethoxy-2-oxoethyl (3R,4R and 3S,4S)-4-{4-carbamoyl-3-[(4-fluorophenyl)amino]-1H-pyrazol-1-yl}-3-cyanopiperidine-1-carboxylate] was tested, and the IC50 was 0.073 µM. `N#C[C@H]1CCOC[C@@H]1n1cc(C(N)=O)c(Nc2ccc(C(F)(F)F)nc2)n1` (single isomer, unassigned) [Example 9-14, 1-[(3R,4S or 3S,4R)-4-cyanotetrahydro-2H-pyran-3-yl]-3-{[6-(trifluoromethyl)pyridin-3-yl]amino}-1H-pyrazole-4-carboxamide] was tested, and the IC50 was 0.004 µM. For `COC(C)(C)c1ccc(Nc2nn([C@@H]3COCC[C@H]3C#N)cc2C(N)=O)cc1` (single isomer, unassigned) [Example 9-25, 1-[(3S,4R or 3R,4R)-4-cyanotetrahydro-2H-pyran-3-yl]-3-{[4-(1-methoxy-1-methylethyl)phenyl]amino}-1H-pyrazole-4-carboxamide], the IC50 was 0.0004 µM. `N#C[C@H]1CCOC[C@@H]1n1cc(C(N)=O)c(Nc2ccccc2)n1` (single isomer, unassigned) [Example 9-37, 1-[(3S,4R or 3R,4S)-4-cyanotetrahydro-2H-pyran-3-yl]-3-(phenylamino)-1H-pyrazole-4-carboxamide] gave an IC50 of 0.067 µM. Molecule `N#C[C@@H]1CN(Cc2cncc(F)c2)CC[C@H]1n1cc(C(N)=O)c(Nc2ccc(F)cc2)n1` (racemic) [Example 6-28, 1-{(3R,4R and 3S,4S)-3-cyano-1-[(5-fluoropyridin-3-yl)methyl]piperidin-4-yl}-3-[(4-fluorophenyl)amino]-1H-pyrazole-4-carboxamide] has an IC50 of 0.058 µM. `COC(C)(C)c1ccc(Nc2nn([C@H]3COCC[C@@H]3C#N)cc2C(N)=O)cc1` (single isomer, unassigned) [Example 9-23, 1-[(3R,4S or 3S,4R)-4-cyanotetrahydro-2H-pyran-3-yl]-3-{[4-(1-methoxy-1-methylethyl)phenyl]amino}-1H-pyrazole-4-carboxamide] gave an IC50 of 0.017 µM. For `N#C[C@@H]1CN(C(=O)OCC(F)F)CC[C@@H]1n1cc(C(N)=O)c(Nc2ccc(F)cc2)n1` (racemic) [Example 5-65, 2,2-difluoroethyl (3R,4S and 3S,4R)-4-{4-carbamoyl-3-[(4-fluorophenyl)amino]-1H-pyrazol-1-yl}-3-cyanopiperidine-1-carboxylate], the IC50 was 1.08 µM. For `N#C[C@@H]1CS(=O)(=O)CC[C@H]1n1cc(C(N)=O)c(Nc2ccc(F)cc2)n1` (single isomer, unassigned) [Example 13-1, 1-((3R,4R or 3S,4S)-3-cyano-1,1-dioxidotetrahydro-2H-thiopyran-4-yl)-3-((4-fluorophenyl)amino)-1H-pyrazole-4-carboxamide], the IC50 was over 1.5 µM.
